{"source": "patent US20240058455A1", "about": "“BIOORTHOGONAL LINKERS AND REACTIONS” (The General Hospital Corporation, priority 2020, published 2024)", "key": {"[1]": {"tested_on": "EGFR-positive A431 cells", "assay": "Imaging of A431 cells stained with Cetux-C2TCO-AF594, click-to-cut with HPA", "format": "cell-based", "experimental": "(§1) At an average DOL of 0.9, Cetux-C2TCO-AF594 prepared with a high concentration of 21 (˜250 μM) achieved >97% cleavage and the respective probe was therefore carried forward for further investigation. EGFR-positive A431 cells were stained with Cetux-C2TCO-AF594, washed and imaged to establish target-specific staining and baseline brightness (ON-state). […] In contrast to image cycling based on click-driven quenching, bioorthogonal disassembly of antibody-C2TCO probes enables multiplexed imaging without any potential rebound in brightness (e.g., caused by degradation of quenched conjugates) as the dye is cleaved and thus removed upon click-to-cut reaction with Tz."}, "[2]": {"assay": "C2TCO cleavage of clicked antibody conjugates after reaction with Tz", "conditions": "average DOL 0.9, prepared with ~250 μM 21", "experimental": "Azido-antibodies were tested at different degrees of labeling (DOL) and the C2TCO cleavage of the clicked conjugates was analyzed after reaction with Tz. No cross-reactivity of 21 with azides was observed (at concentrations of up to 100 mM) in various solvents (incl. PBS), but when clicked to the antibody, a consistent trend toward lower C2TCO reactivity was noted as the number of azides per antibody increased.\nas §1"}}}
{"substance": "Cetux-C2TCO-AF594: cetuximab N3 click-conjugated to DBCO-C2TCO-AF594 (21)", "values": [{"measurement": "residual background signal, of the peak staining intensity", "setting": "[1]; HPA 500 μM in PBS, line-intensity profile", "result": "less than 3%"}, {"measurement": "time to near-quantitative bioorthogonal disassembly", "setting": "[1]; cell imaging, HPA", "result": "≤ 6", "unit": "min"}, {"measurement": "cleavage", "setting": "[2]", "result": "> 97", "unit": "%"}]}
